Membrane permeability of cyclic peptides

Source: CycPeptMPDB (Li et al. 2023), which took these values from Furukawa et al. 2016, doi:10.1021/acs.jmedchem.6b01246.

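The data file gives no further conditions (lipid, pH, time, direction or concentration), and values from different papers need not be comparable. Other peptides of the study may be missing here. Entries at the database's floor value (log10 P of -10) are not listed.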

PAMPA measures passive passage through an artificial lipid membrane.
Values are log10 P with P in cm/s, so -5 is more permeable than -7.

| structure (SMILES) | PAMPA (log10 cm/s) |
|---|---|
| CCCC[C@@H]1NC(=O)[C@H](CC(C)C)N(C)C(=O)CN(CC2CCOCC2)C(=O)[C@H](C)NC(=O)CN(Cc2ccc3c(c2)OCO3)C(=O)[C@H]2CCCN2C1=O | -6.10 |
| CCCC[C@@H]1NC(=O)[C@H](CC(C)C)N(C)C(=O)CN(CC2CCOCC2)C(=O)[C@@H](C)NC(=O)CN(CCCOC(C)C)C(=O)[C@H]2CCCN2C1=O | -7.33 |
| CCCC[C@@H]1NC(=O)[C@H](CC(C)C)N(C)C(=O)CN(CC2CCCCC2)C(=O)[C@H](C)NC(=O)CN(CCCOC(C)C)C(=O)[C@H]2CCCN2C1=O | -4.88 |
| CCCCCN1CC(=O)N(C)[C@@H](CC(C)C)C(=O)N[C@@H](CCCC)C(=O)N2CCC[C@H]2C(=O)N(Cc2ccc3c(c2)OCO3)CC(=O)N[C@H](C)C1=O | -5.14 |
| CCCC[C@@H]1NC(=O)[C@H](CC(C)C)NC(=O)CN(CC2CCOCC2)C(=O)[C@@H](C)NC(=O)CN(CC)C(=O)[C@H]2CCCN2C1=O | -8.80 |
| CCCCCN1CC(=O)N[C@@H](CC(C)C)C(=O)N[C@@H](CCCC)C(=O)N2CCC[C@H]2C(=O)N(Cc2ccc3c(c2)OCO3)CC(=O)N[C@H](Cc2ccccc2)C1=O | -5.39 |
| CCCC[C@@H]1NC(=O)[C@H](CC(C)C)N(C)C(=O)CN(CC2CCOCC2)C(=O)[C@H](Cc2ccccc2)NC(=O)CN(CC)C(=O)[C@@H]2CCCN2C1=O | -5.47 |
| CCCC[C@@H]1NC(=O)[C@H](CC(C)C)N(C)C(=O)CN(CC2CCOCC2)C(=O)[C@H](Cc2ccccc2)NC(=O)CN(Cc2ccc3c(c2)OCO3)C(=O)[C@H]2CCCN2C1=O | -5.46 |
| CCCCCN1CC(=O)N[C@@H](CC(C)C)C(=O)N[C@@H](CCCC)C(=O)N2CCC[C@H]2C(=O)N(Cc2ccc3c(c2)OCO3)CC(=O)N[C@@H](Cc2ccccc2)C1=O | -5.09 |
| CCCC[C@@H]1NC(=O)[C@@H](CC(C)C)NC(=O)CN(CC2CCCCC2)C(=O)[C@@H](C)NC(=O)CN(Cc2ccc3c(c2)OCO3)C(=O)[C@@H]2CCCN2C1=O | -5.42 |
| CCCC[C@@H]1NC(=O)[C@@H](CC(C)C)N(C)C(=O)CN(CC2CCCCC2)C(=O)[C@@H](Cc2ccccc2)NC(=O)CN(CC)C(=O)[C@H]2CCCN2C1=O | -5.08 |
| CCCCCN1CC(=O)N(C)[C@@H](CC(C)C)C(=O)N[C@@H](CCCC)C(=O)N2CCC[C@@H]2C(=O)N(Cc2ccc3c(c2)OCO3)CC(=O)N[C@@H](C)C1=O | -4.86 |
| CCCCCN1CC(=O)N[C@@H](CC(C)C)C(=O)N[C@@H](CCCC)C(=O)N2CCC[C@H]2C(=O)N(CC)CC(=O)N[C@H](Cc2ccccc2)C1=O | -5.53 |
| CCCC[C@@H]1NC(=O)[C@@H](CC(C)C)NC(=O)CN(CC2CCCCC2)C(=O)[C@@H](C)NC(=O)CN(CC)C(=O)[C@@H]2CCCN2C1=O | -6.34 |
| CCCCCN1CC(=O)N(C)[C@H](CC(C)C)C(=O)N[C@@H](CCCC)C(=O)N2CCC[C@H]2C(=O)N(CCCOC(C)C)CC(=O)N[C@H](Cc2ccccc2)C1=O | -4.86 |
| CCCC[C@@H]1NC(=O)[C@@H](CC(C)C)N(C)C(=O)CN(CC2CCCCC2)C(=O)[C@@H](C)NC(=O)CN(CCCOC(C)C)C(=O)[C@@H]2CCCN2C1=O | -5.30 |
| CCCC[C@@H]1NC(=O)[C@@H](CC(C)C)NC(=O)CN(CC2CCOCC2)C(=O)[C@H](Cc2ccccc2)NC(=O)CN(Cc2ccc3c(c2)OCO3)C(=O)[C@H]2CCCN2C1=O | -5.06 |
| CCCC[C@@H]1NC(=O)[C@@H](CC(C)C)N(C)C(=O)CN(CC2CCOCC2)C(=O)[C@H](Cc2ccccc2)NC(=O)CN(CC)C(=O)[C@H]2CCCN2C1=O | -5.17 |
| CCCC[C@@H]1NC(=O)[C@@H](CC(C)C)NC(=O)CN(CC2CCOCC2)C(=O)[C@H](C)NC(=O)CN(Cc2ccc3c(c2)OCO3)C(=O)[C@@H]2CCCN2C1=O | -5.89 |

The 2 highest values of PAMPA among the entries above:

structure (SMILES)	PAMPA (log10 cm/s)
CCCCCN1CC(=O)N(C)[C@H](CC(C)C)C(=O)N[C@@H](CCCC)C(=O)N2CCC[C@H]2C(=O)N(CCCOC(C)C)CC(=O)N[C@H](Cc2ccccc2)C1=O	-4.86
CCCCCN1CC(=O)N(C)[C@@H](CC(C)C)C(=O)N[C@@H](CCCC)C(=O)N2CCC[C@@H]2C(=O)N(Cc2ccc3c(c2)OCO3)CC(=O)N[C@@H](C)C1=O	-4.86